Test results as given in PMC8623652, “Disulfide Dimerization of Neuronal Calcium Sensor-1: Implications for Zinc and Redox Signaling” (International Journal of Molecular Sciences, 2021).

Amino acid sequences for entries named in this document (tags omitted). A change or cut given only in a name is not applied to a line headed by its entry.
UniProt P62166: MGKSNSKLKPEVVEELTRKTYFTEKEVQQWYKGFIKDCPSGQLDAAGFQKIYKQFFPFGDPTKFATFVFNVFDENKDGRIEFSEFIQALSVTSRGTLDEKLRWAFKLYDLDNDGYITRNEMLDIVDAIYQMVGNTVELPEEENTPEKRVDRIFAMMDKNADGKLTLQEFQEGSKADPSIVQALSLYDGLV

Target: Disulfide dimer of NCS-1 (dNCS-1), prepared from purified recombinant NCS-1 (UniProt P62166 1-190, N-terminal myristoylation (~98%); disulfide bond between C38 of the two chains)
Experiment: SPR; GRK1^N-C immobilised by amine coupling on a ProteOn GLH chip (up to 12,000 RU); analyte NCS-1 or dNCS-1 0.5 to 20 μM; 25 °C; 10 mM HEPES pH 7.4, 150 mM NaCl, 1 mM CaCl2, 0.05% Tween 20; global fits by the heterogeneous ligand model (both) or the bivalent analyte model (dNCS-1)
Details: both partners purified

Kd: 30 nM
koff: 0.00023 s⁻¹
kon: 9780 ± 5700 M⁻¹ s⁻¹
B1: Chimera GRK1^N-C, fusion protein containing regulatory domains of GRK1 (GRK1 1-191,512-557) (domain or fragment)
chain: MDFGSLETVVANSAFIAARGSFDASSGPASRDRKYLARLKLPPLSKCEALRESLDLGFEGMCLEQPIGKRLFQQFLRTHEQHGPALQLWKDIEDYDTADDALRPQKAQALRAAYLEPQAQLFCSFLDAETVARARAGAGDGLFQPLLRAVLAHLGQAPFQEFLDSLYFLRFLQWKWLEAQPMGEDWFLDFRPIPWQEEMIETGVFGDLNVWRPDGQMPDDMKGVSGQEAAPSSKSGM
notes: G-protein coupled receptor kinase 1 (GRK1, rhodopsin kinase), residues 512-557; source: E. coli (plasmid pET28a), purified from bacterial lysate under non-denaturating conditions
